This passage reports Ki and IC50 results from PMC8949286, “A New Strategy for As(V) Biosensing Based on the Inhibition of the Phosphatase Activity of the Arsenate Reductase from Thermus thermophilus” (International Journal of Molecular Sciences, 2022).

By UniProt entry, the sequences of proteins in these tests, tags left out. Residues count along the entry.
UniProt Q72HI5, 1-150: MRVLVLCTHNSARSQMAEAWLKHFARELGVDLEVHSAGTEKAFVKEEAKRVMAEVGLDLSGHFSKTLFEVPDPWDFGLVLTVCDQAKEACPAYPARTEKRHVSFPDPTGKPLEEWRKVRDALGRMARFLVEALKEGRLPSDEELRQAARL

The target of experiment [1] is T1, TtArsC (Thermus thermophilus, UniProt Q72HI5). The experiment is described as follows: pNPP phosphatase assay, A405, nonlinear fit to non-competitive model. Type of experiment: biochemical. Particulars: pNPP 0.25-200 mM, As(V) 0-20 µM, 4 µM enzyme, 20 mM Tris-HCl pH 7, 60 °C.
For experiment [2], the target named is T1, TtArsC. The experiment is described as follows: pNPP phosphatase assay, A405, dose-response fit with Hill slope. The conditions noted are these: 40 mM pNPP, As(V) 0-100 µM, pH 7, 60 °C.

Take `O=[As](O)(O)O`: the inhibition constant Ki (usually the equilibrium dissociation constant of an inhibitor or competing ligand from its target) in experiment [1] is 15.2 µM. The IC50 – broadly, the point on the concentration scale where inhibition reaches its midpoint – in experiment [2] came out at 13.2 µM.
